The results in this text go back to patent publication US9040694B1, “Compounds and methods useful for directing stem cell differentiation” (priority 2009, dated 2015).

The target of the assay is AMPK. In words: In vitro kinase assay (Reaction Biology Corp). In kind it is biochemical. As to conditions: 10 μM ATP; purified kinase.

In general, IC50 refers to the concentration that inhibits the measured activity by half. A low value points to higher potency. `c1cc(-c2cnn3cc(-c4ccc(OCCN5CCCCC5)cc4)cnc23)ccn1` [Dorsomorphin, 6-[4-(2-Piperidin-1-yl-ethoxy)phenyl]-3-pyridin-4-yl-pyrazolo[1,5-a]pyrimidine] showed an IC50 of 0.318 µM.
